{"source": "paper PMC6271717", "about": "“Chemical Composition, Biological and Cytotoxic Activities of Plant Extracts and Compounds Isolated from Ferula lutea” (Molecules, 2014)", "molecular_target": "T1, Porcine pancreatic α-amylase (Sus scrofa, UniProt P00690)", "T1 sequence (P00690 16-511)": "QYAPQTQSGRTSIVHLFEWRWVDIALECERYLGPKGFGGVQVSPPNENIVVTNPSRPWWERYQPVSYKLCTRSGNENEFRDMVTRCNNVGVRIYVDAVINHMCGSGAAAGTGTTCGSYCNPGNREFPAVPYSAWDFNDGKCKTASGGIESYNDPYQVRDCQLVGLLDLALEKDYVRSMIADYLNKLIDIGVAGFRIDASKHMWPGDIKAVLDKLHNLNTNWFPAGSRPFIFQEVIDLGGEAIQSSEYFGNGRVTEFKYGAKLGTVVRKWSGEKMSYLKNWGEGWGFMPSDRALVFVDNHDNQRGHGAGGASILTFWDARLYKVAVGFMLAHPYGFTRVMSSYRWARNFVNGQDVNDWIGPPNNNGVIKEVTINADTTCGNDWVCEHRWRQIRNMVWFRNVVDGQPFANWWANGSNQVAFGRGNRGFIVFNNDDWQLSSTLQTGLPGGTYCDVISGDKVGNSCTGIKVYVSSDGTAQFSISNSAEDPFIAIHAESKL", "assay": "Antidiabetic activity (α-amylase inhibition)", "type": "biochemical", "conditions": "at 20 µg/mL; na: not active at 1,000 µg/mL"}
{"molecule": "C[C@H]1O[C@H](O[C@H]2[C@H](O)[C@@H](O)[C@@H](O[C@H]3[C@H](O)[C@@H](O)C(O)O[C@@H]3CO)O[C@@H]2CO)[C@H](O)[C@@H](O)[C@@H]1N[C@H]1C=C(CO)[C@@H](O)[C@H](O)[C@H]1O", "note": "(stereo partly shown) [Acarbose]", "values": [{"measurement": "Antidiabetic Activity, percent inhibition", "result": 30, "unit": "%"}]}
